miR-21 reporter = miR-21 reporter, rising signal | HeLa miR-21 FLuc reporter, luciferase, 48 h | Potency, µM (top dose mostly 38.3 µM), inactives show at the top dose reporter change, positive = more light | 340,000 tested, under 10 active | AID 2288; active = well fitted rising curve with a large enough effect; inconclusive = small, poorly fitted or top-dose-only effect; inactive = no such curve, though single readings can be large or run the other way;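 further: % of control where 0% means no effect; miR-21 action dims this reporter so a rising signal means less miR-21 action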
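HeLa cells endogenously expressing miR-21, stably carrying CMV-driven firefly luciferase with a downstream miR-21 binding site, 2000 cells/well. Titrations up to approximately 40 uM, 48 hours; luciferase luminescence read.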
TDP1 cell CPT = DT40-hTDP1 cell growth loss with CPT. chicken DT40 Tdp1-/-;hTDP1 cells + 20 nM CPT, ATP luminescence, 48 h. Potency, µM (doses to about 46.2 µM), without a hit: top-dose activity change, negative = growth inhibition, usual class: inhibitors. 420,000 compounds, 12% hits. AID 686979; also: potency is read from the fitted curve at half-maximal effect; % is scaled to controls: 0 for no effect and ±100 for the full control effect; nearly all actives have a fitted effect of over 55% in size
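Chicken DT40 Tdp1-/- cells complemented with human TDP1, 400 cells/well, exposed to compounds plus 20 nM camptothecin for at least 48 h at 37 C; viability read as ATP content by CellTiter-Glo luminescence.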
TDP1 block = TDP1 (human) enzyme inhibition; recombinant TDP1, AlphaScreen DNA substrate cleavage; AID 485290; Q9NUW8; Potency, µM (highest dose often 130 µM), for inactives: at the highest dose activity change, negative = inhibition, hits mostly inhibitors; 350,000 compounds, 0.28% hits; also: potency is read from the fitted curve at half-maximal effect; % is scaled to controls: 0 for no effect and ±100 for the full control effect; nearly all actives have a fitted effect of over 40% in size
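Here, a 5' biotin and 3' phosphotyrosine-FITC DNA oligonucleotide reports Tdp1 activity: intact substrate bridges AlphaScreen beads, while cleavage leaves a 3' phosphate and drops signal. All incubations at room temperature.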
DT40 TDP1 no CPT = qHTS for Inhibitors of human tyrosyl-DNA phosphodiesterase 1 (TDP1): qHTS in cells in absence of CPT. Potency, µM (doses to about 46.2 µM), for inactives: at the highest dose activity change, negative = growth inhibition, most hits filed as inhibitors. AID 686978, 2013. DT40 Tdp1-/- hTDP1 cells, no CPT, ATP luminescence, 48 h. 420,000 compounds, 15% hits; also: potency is read from the fitted curve at half-maximal effect; % is scaled to controls: 0 for no effect and ±100 for the full control effect; nearly all actives have a fitted effect of over 55% in size
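Chicken DT40 Tdp1-/- cells stably complemented with human TDP1 were seeded at 400 cells/well with DMSO in place of 20 nM camptothecin. After compound pinning, cells grew at least 48 hr at 37 °C; viability read by CellTiter-Glo luminescence.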
uPA surface inh = blocks generation of uPA at the cell surface | cell surface uPA generation assay, qHTS | Potency, µM (doses to about 38.3 µM), for the others: at the top dose activity change, negative = inhibition, most hits filed as inhibitors | 330,000 compounds, 0.31% hits | AID 540303; active = well fitted inhibition curve with a large enough effect; inconclusive = small, poorly fitted or top-dose-only effect; inactive = no such curve, though single readings can be large or run the other way; tested in mouse RAW 264.7 cells; also: potency is read from the fitted curve at half-maximal effect; % is scaled to controls: 0 for no effect and ±100 for the full control effect; nearly all actives have a fitted effect of over 55% in size
* marks the source's active call; other numbers are inactive results; u = inconclusive; x = no result given; [ ] = another dose, or the depositor's remark. A selection: hits, their analogues and other compounds. The true share with any hit is near 16%. Unless noted, calls follow the shape of the dose curve; as a rule, active = well fitted curve in the direction sought with a large enough effect; inconclusive = small, poorly fitted or top-dose-only effect, or another doubt; inactive = no such curve, though single readings can be large; an effect the other way counts as inactive or inconclusive.

SMILES	miR-21 reporter	TDP1 cell CPT	TDP1 block	DT40 TDP1 no CPT	uPA surface inh
COCCn1c(=O)c2c(nc3n2CCCN3CCc2ccccc2)n(C)c1=O	5.0%	4.5%	x	-7.9%	1.0%
Cc1ccccc1Cn1c(=O)c2c(nc3n2CCCN3Cc2ccccc2)n(C)c1=O	x	20.6µM*	x	u	1.5%
C=C(C)Cn1c(=O)c2c(nc3n2CCN3c2cc(C)cc(C)c2)n(C)c1=O	19.1%	-24.0%	5.2%	23.1µM*	x
Cn1c(=O)n(CC(=O)OCc2ccccc2)c(=O)c2c1nc1n2CCCN1C1CCCCC1	x	u	x	23.1µM*	3.6%
N#Cc1c(Sc2ncc(C(F)(F)F)cc2Cl)nsc1C/C=N\OCc1ccccc1Br	0.3%	u	12.1%	u	2.7%
CCCCn1c(=O)c2c(nc3n2CCCN3Cc2ccccc2)n(C)c1=O	5.0%	u	x	23.1µM*	-1.5%
CN1CC(=O)Nc2ccc(Br)cc2C1=O	2.2%	-3.0%	x	-1.2%	10.4%
O=C1Nc2ccc(Br)cc2C1=C1CCCCC1	18.8%	u	x	23.1µM*	-5.8%
CN1[C@@H](Cc2ccccc2)COc2cc(N3CCSCC3)ccc2S1(=O)=O	x	u	x	16.4µM*	x
O=C(CSc1nnc(-c2ccco2)o1)N1CCCCC1	-53.6%	-18.4%	x	-5.1%	-3.0%
Cc1c(CC(=O)NC(C)C)c(=O)oc2cc3c(cc12)CCC(C)(C)O3	-55.2%	20.6µM*	x	u	0.5%
CCC(C)NC(=O)Cc1c(C)c2cc3c(cc2oc1=O)OC(C)(C)CC3 (stereo not drawn)	-27.9%	u	x	14.6µM*	-1.5%
Cc1c(CC(=O)N[C@H](C(=O)O)C(C)C)c(=O)oc2cc3c(cc12)CCC(C)(C)O3	-47.1%	u	x	23.1µM*	0.0%
Cc1c(CC(=O)N[C@@H](C)C(=O)O)c(=O)oc2cc3c(cc12)CCC(C)(C)O3	-4.9%	11.0%	x	-22.7%	4.0%
COC(=O)C1CCN(c2cc(=O)n(-c3ccccc3Cl)c(=O)[nH]2)CC1	0.2%	16.1%	u	-3.6%	x
Cn1cccc1C(=O)N1CCC2(CC1)CN(C(=O)Nc1cccc(F)c1)C2	x	-9.6%	x	u	x
CC1(C)O[C@@H]1COc1c2ccoc2cc2oc(=O)ccc12	-10.5%	11.6µM*	1.3%	18.4µM*	u
CCCCCCCCCCCCCCCC(=O)O[C@H](CC(=O)O)C[N+](C)(C)C	x	u	8.3%	29.9µM*	x
CCCCCCCCCCCCCCCC(=O)OC(CC(=O)O)C[N+](C)(C)C (stereo not drawn)	x	5.8µM*	9.9%[56.1 µM]	u	u
CCCCCCCCCCCCCC(=O)O[C@H](CC(=O)O)C[N+](C)(C)C	x	u	-4.4%[56.1 µM]	-20.5%	x
Nc1ncnc2c1nc(Br)n2C1CC(O)C(CO)O1 (stereo not drawn)	x	-3.1%	2.6%	-7.3%	x
O=C(Nc1cccnc1)c1ccc(COc2cc(Cl)ccc2Cl)o1	7.4%	u	0.0%	18.4µM*	-2.1%
O=C(Nc1ccc(Cl)cn1)c1ccc(COc2ccccc2Br)o1	-23.9%	u	2.5%	u	-1.8%
O=C(Nc1nn(Cc2ccc(Cl)cc2)cc1Br)c1ccc(COc2ccccc2Cl)o1	23.3%	25.9µM*	2.9%	25.9µM*	7.0%
CCN(CC)C(=O)c1ccc(COc2ccccc2Cl)o1	-32.2%	-20.5%	x	16.4µM*	1.8%
CN(C(=O)c1ccc(COc2ccccc2Cl)o1)c1ccccc1	-28.6%	-23.8%	x	-25.0%	-6.9%
COC(=O)c1ccccc1NC(=O)c1cccc(COc2ccccc2Cl)c1	-14.1%	9.2µM*	-11.3%	8.2µM*	-5.2%
CC1CCCC(C)N1C(=O)COC(=O)CCC(=O)c1cccs1 (stereo not drawn)	x	0.7%	0.7%	0.2%	2.6%
CC(C(=O)O)n1nc2ccccc2n1 (stereo not drawn)	-0.3%	11.2%	4.1%	-11.8%	3.5%
Cc1c(NC(=O)C(C)OC(=O)c2ccc(Cl)nc2)c(=O)n(-c2ccccc2)n1C (stereo not drawn)	0.7%	1.8%	-2.6%	-7.7%	0.0%

Exported in markdown: entries from further up
| SMILES | miR-21 reporter | TDP1 cell CPT | TDP1 block | DT40 TDP1 no CPT | uPA surface inh |
| --- | --- | --- | --- | --- | --- |
| Cn1cccc1C(=O)N1CCC2(CC1)CN(C(=O)Nc1cccc(F)c1)C2 | x | -9.6% | x | u | x |
| CC1(C)O[C@@H]1COc1c2ccoc2cc2oc(=O)ccc12 | -10.5% | 11.6µM* | 1.3% | 18.4µM* | u |

Additional results follow:
SMILES	miR-21 reporter	TDP1 cell CPT	TDP1 block	DT40 TDP1 no CPT	uPA surface inh
Cc1cc(C)n(Cc2ccc(NC(=O)c3ccc(COc4ccccc4Br)cc3)cc2)n1	25.7%	20.6µM*	2.0%	29.1µM*	x
O=C(NCc1cccnc1)c1ccc(COc2ccccc2Br)cc1	-1.7%	7.2%	8.2%	u	-1.1%
O=C(NCc1cccnc1)c1ccc(COc2ccccc2Cl)cc1	1.5%	u	-1.8%	13µM*	1.8%
Cc1cc(C)nc(NC(=O)c2ccc(COc3ccccc3Cl)cc2)c1	5.2%	18.4µM*	5.5%	25.9µM*	-2.1%
O=C(Nc1cccnc1)c1ccc(COc2ccccc2Cl)o1	6.1%	18.4µM*	-3.0%	20.6µM*	-8.5%
NC(=O)c1ccc(NC(=O)c2ccc(COc3ccccc3Br)cc2)cc1	x	-16.7%	-5.5%	-13.4%	0.2%
CC1CCN(C(=S)c2ccc([N+](=O)[O-])cc2)CC1	-3.5%	u	2.6%	u	1.7%
CCOc1ccc(C(=O)NCC(=O)OCC(=O)NC2CCCC2)cc1	5.0%	6.1%	1.2%	1.1%	-0.3%
CN(C)c1ccc(NC(=O)c2ccc(COc3cccc(Cl)c3)o2)cc1	-19.9%	20.6µM*	9.8%	u	-4.1%
Cc1[nH][nH]c(=O)c1C(c1c(C)[nH][nH]c1=O)c1cn(Cc2ccc(Cl)c(Cl)c2)c2ccccc12	22.6%	2.06µM*	10.5%	2.06µM*	-8.9%
Cc1[nH][nH]c(=O)c1C(c1c(C)[nH][nH]c1=O)c1cn(Cc2ccc(F)cc2)c2ccccc12	u	6.51µM*	8.0%	5.17µM*	-5.2%
O=c1c2ccccc2ncn1Cc1ccc(Cl)c(Cl)c1	0.1%	4.3%	0.6%	0.1%	u
O=S1(=O)CC(N2CCCCC2)CN1Cc1cn(Cc2ccc(C(F)(F)F)cc2)nn1 (stereo not drawn)	x	-6.7%	x	-22.5%	x
C=C1C(=O)OC2CC1C(OC(C)=O)CC(C)=CCCC(C)=CCC[C@@]2(C)O (stereo partly drawn)	x	2.91µM*	8.5%[56.1 µM]	3.26µM*	x
C=C1C(=O)OC2CC1C(O)CC(C)=CCCC(C)=CC(O)CC2C (stereo not drawn)	x	2.91µM*	x	3.26µM*	-16.2%
COc1ccc(-c2cc(C(F)(F)F)nc(SCC(=O)Nc3ccc4c(c3)OCO4)n2)cc1	-11.1%	-1.8%	0.0%	-5.4%	4.9%
CCN(CC)S(=O)(=O)c1cc(C(=O)N2CCc3ccccc32)ccc1Cl	22.8%	u	2.0%	9.2µM*	-2.4%
CN(C)S(=O)(=O)c1cccc(C(=O)Nc2ccccc2[N+](=O)[O-])c1	-14.8%	u	2.6%	u	-5.3%
CCN(CC)S(=O)(=O)c1cc(C(=O)Nc2ccccc2[N+](=O)[O-])ccc1Cl	-56.9%	u	9.4%	16.4µM*	-4.2%

Random excerpt: 5 records from the list, in no set order.
SMILES	miR-21 reporter	TDP1 cell CPT	TDP1 block	DT40 TDP1 no CPT	uPA surface inh
CC1CCN(C(=S)c2ccc([N+](=O)[O-])cc2)CC1	-3.5%	u	2.6%	u	1.7%
CCC(C)NC(=O)Cc1c(C)c2cc3c(cc2oc1=O)OC(C)(C)CC3 (stereo not drawn)	-27.9%	u	x	14.6µM*	-1.5%
Cn1cccc1C(=O)N1CCC2(CC1)CN(C(=O)Nc1cccc(F)c1)C2	x	-9.6%	x	u	x
CCOc1ccc(C(=O)NCC(=O)OCC(=O)NC2CCCC2)cc1	5.0%	6.1%	1.2%	1.1%	-0.3%
O=C1Nc2ccc(Br)cc2C1=C1CCCCC1	18.8%	u	x	23.1µM*	-5.8%
